Assay results as given in US7507717B2 (Xenome Ltd., priority 2002, dated 2009).

By UniProt entry, the sequences of proteins in these tests, tags left out.
UniProt P23975, whole entry: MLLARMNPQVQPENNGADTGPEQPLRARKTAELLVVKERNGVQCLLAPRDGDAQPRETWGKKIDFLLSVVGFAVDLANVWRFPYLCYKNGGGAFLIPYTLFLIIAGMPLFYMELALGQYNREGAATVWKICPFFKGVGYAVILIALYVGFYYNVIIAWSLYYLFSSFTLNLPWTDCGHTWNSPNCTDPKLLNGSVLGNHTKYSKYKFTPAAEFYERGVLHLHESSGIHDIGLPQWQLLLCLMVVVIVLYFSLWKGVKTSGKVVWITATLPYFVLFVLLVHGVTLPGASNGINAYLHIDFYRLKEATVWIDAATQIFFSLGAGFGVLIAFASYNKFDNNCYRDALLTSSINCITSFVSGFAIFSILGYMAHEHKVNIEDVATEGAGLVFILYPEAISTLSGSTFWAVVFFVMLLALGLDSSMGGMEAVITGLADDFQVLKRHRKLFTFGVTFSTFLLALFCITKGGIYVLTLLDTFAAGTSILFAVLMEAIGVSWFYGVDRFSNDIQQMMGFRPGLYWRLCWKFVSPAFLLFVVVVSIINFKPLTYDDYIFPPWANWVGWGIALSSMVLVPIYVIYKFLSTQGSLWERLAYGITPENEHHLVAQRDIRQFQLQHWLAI

Legend:
[1] = molecular target: T1, human noradrenaline transporter (hNET) (Homo sapiens, UniProt P23975); assay: biochemical; assay type: binding; details: Av IC50 Displacement of 3H-nisoxetine from hNET
T1 construct: expressed in transfected cells; host or cells: COS-7 cells (ATCC), transient transfection with metafectene

[2] = molecular target: T1, human noradrenaline transporter (hNET); assay: cell-based

Compound: CCCC[C@H](NC(=O)CNC(=O)[C@H](CCCNC(=N)N)NC(=O)[C@H](Cc1ccc(O)cc1)NC(=O)[C@@H](N)CCCCN)C(=O)N[C@H]1CSSC[C@@H](C(N)=O)NC(=O)[C@@H]2C[C@@H](O)CN2C(=O)[C@H](CCCNC(=N)N)NC(=O)[C@@H]2CSSC[C@H](NC1=O)C(=O)NCC(=O)N[C@@H](Cc1ccc(OC)cc1)C(=O)N[C@@H](CCCCN)C(=O)N[C@@H](CC(C)C)C(=O)N2 [compound 18]
- IC50 [1]: 34.7 nM
- IC50 [2]: 51.3 nM

Compound: CCCC[C@H](NC(=O)CNC(=O)C[C@@H](N)CCCCN)C(=O)N[C@H]1CSSC[C@@H](C(N)=O)NC(=O)[C@@H]2C[C@@H](O)CN2C(=O)[C@H](Cc2c[nH]cn2)NC(=O)[C@@H]2CSSC[C@H](NC1=O)C(=O)NCC(=O)N[C@@H](Cc1ccc(OC)cc1)C(=O)N[C@@H](CCCCN)C(=O)N[C@@H](CCC(C)C)C(=O)N2 [compound 19]
- IC50 [1]: 35.5 nM
- IC50 [2]: 44.7 nM

Compound: COc1ccc(C[C@@H]2NC(=O)CNC(=O)[C@@H]3CSSC[C@H](NC(=O)[C@H](CC(C)C)NC(=O)[C@H](CCCCN)NC2=O)C(=O)N[C@@H](Cc2c[nH]cn2)C(=O)N2C[C@H](O)C[C@H]2C(=O)N[C@H](C(N)=O)CSSC[C@H](NC(=O)[C@@H](NC(=O)CNC(=O)[C@H](CCCNC(=N)N)NC(=O)[C@@H](N)Cc2c[nH]c4ccccc24)C(C)C)C(=O)N3)cc1 [compound 20]
- IC50 [1]: 38 nM
- IC50 [2]: 25.7 nM

Compound: CCCC[C@H](NC(=O)CNC(=O)[C@H](Cc1ccc(O)cc1)NC(=O)[C@H](CCCNC(=N)N)NC(=O)[C@@H](N)Cc1ccccc1)C(=O)N[C@H]1CSSC[C@@H](C(N)=O)NC(=O)[C@@H]2C[C@@H](O)CN2C(=O)[C@H](CCCNC(=N)N)NC(=O)[C@@H]2CSSC[C@H](NC1=O)C(=O)NCC(=O)N[C@@H](Cc1ccc(OC)cc1)C(=O)N[C@@H](CCCCN)C(=O)N[C@@H](CC(C)C)C(=O)N2 [compound 22]
- IC50 [1]: 42.7 nM
- IC50 [2]: 81.3 nM

Compound: CCCC[C@H](NC(=O)CNC(=O)[C@H](CCCNC(=N)N)NC(=O)[C@H](CCCN)NC(=O)[C@@H](N)Cc1ccc(O)cc1)C(=O)N[C@H]1CSSC[C@@H](C(N)=O)NC(=O)[C@@H]2C[C@@H](O)CN2C(=O)[C@H](CCCNC(=N)N)NC(=O)[C@@H]2CSSC[C@H](NC1=O)C(=O)NCC(=O)N[C@@H](Cc1ccc(OC)cc1)C(=O)N[C@@H](CCCCN)C(=O)N[C@@H](CC(C)C)C(=O)N2 [compound 23]
- IC50 [1]: 44.7 nM
- IC50 [2]: 61.7 nM

Compound: CCCC[C@H](NC(=O)CNC(=O)C[C@@H](N)CCCCN)C(=O)N[C@H]1CSSC[C@@H](C(N)=O)NC(=O)[C@@H]2C[C@@H](O)CN2C(=O)[C@H](Cc2c[nH]cn2)NC(=O)[C@@H]2CSSC[C@H](NC1=O)C(=O)NCC(=O)N[C@@H](Cc1ccc(O)cc1)C(=O)N[C@@H](CCCCN)C(=O)N[C@@H](CCC(C)C)C(=O)N2 [compound 27]
- IC50 [1]: 56.2 nM
- IC50 [2]: 57.5 nM

Compound: CCCC[C@H](NC(=O)CNC(=O)[C@H](CCCNC(=N)N)NC(=O)[C@H](Cc1ccccc1)NC(=O)[C@@H](N)Cc1ccc(O)cc1)C(=O)N[C@H]1CSSC[C@@H](C(N)=O)NC(=O)[C@@H]2C[C@@H](O)CN2C(=O)[C@H](CCCNC(=N)N)NC(=O)[C@@H]2CSSC[C@H](NC1=O)C(=O)NCC(=O)N[C@@H](Cc1ccc(OC)cc1)C(=O)N[C@@H](CCCCN)C(=O)N[C@@H](CC(C)C)C(=O)N2 [compound 28]
- IC50 [1]: 72.4 nM
- IC50 [2]: 69.2 nM

Compound: CCCC[C@H](NC(=O)CNC(=O)C[C@@H](N)CCCCN)C(=O)N[C@H]1CSSC[C@@H](C(N)=O)NC(=O)[C@@H]2C[C@@H](O)CN2C(=O)[C@H](Cc2c[nH]cn2)NC(=O)[C@@H]2CSSC[C@H](NC1=O)C(=O)NCC(=O)N[C@@H](Cc1ccc(OC)cc1)C(=O)N[C@@H](CCCCN)C(=O)N[C@@H](CC(C)C)C(=O)N2 [compound 32]
- IC50 [1]: 87.1 nM
- IC50 [2]: 69.2 nM

Compound: COc1ccc(C[C@@H]2NC(=O)CNC(=O)[C@@H]3CSSC[C@H](NC(=O)[C@H](CC(C)C)NC(=O)[C@H](CCCCN)NC2=O)C(=O)N[C@@H](CCCNC(=N)N)C(=O)N[C@@H](CCCCN)C(=O)N[C@H](C(N)=O)CSSC[C@H](NC(=O)[C@H](CC(C)C)NC(=O)CNC(=O)[C@H](CCCNC(=N)N)NC(=O)[C@@H](N)Cc2c[nH]c4ccccc24)C(=O)N3)cc1 [compound 36]
- IC50 [1]: 97.7 nM
- IC50 [2]: 85.1 nM

Compound: CCCC[C@H](NC(=O)CNC(=O)[C@H](CCCNC(=N)N)NC(=O)[C@H](Cc1ccc(O)cc1)NC(=O)[C@@H]1CCC(=O)N1)C(=O)N[C@H]1CSSC[C@@H](C(N)=O)NC(=O)[C@@H]2C[C@@H](O)CN2C(=O)[C@H](CCCNC(=N)N)NC(=O)[C@@H]2CSSC[C@H](NC1=O)C(=O)NCC(=O)N[C@@H](Cc1ccc(OC)cc1)C(=O)N[C@@H](CCCCN)C(=O)N[C@@H](CC(C)C)C(=O)N2 [compound 41]
- IC50 [1]: 110 nM
- IC50 [2]: 132 nM

Compound: CCCC[C@H](NC(=O)CNC(=O)[C@@H](N)CCCN)C(=O)N[C@H]1CSSC[C@@H](C(N)=O)NC(=O)[C@@H]2C[C@@H](O)CN2C(=O)[C@H](Cc2c[nH]cn2)NC(=O)[C@@H]2CSSC[C@H](NC1=O)C(=O)NCC(=O)N[C@@H](Cc1ccc(OC)cc1)C(=O)N[C@@H](CCCCN)C(=O)N[C@@H](CCC(C)C)C(=O)N2 [compound 42]
- IC50 [1]: 117 nM
- IC50 [2]: 46.8 nM

Compound: CCCC[C@H](NC(=O)CNC(=O)[C@@H](N)CCCN)C(=O)N[C@H]1CSSC[C@@H](C(N)=O)NC(=O)[C@@H]2C[C@@H](O)CN2C(=O)[C@H](Cc2c[nH]cn2)NC(=O)[C@@H]2CSSC[C@H](NC1=O)C(=O)NCC(=O)N[C@@H](Cc1ccc(OC)cc1)C(=O)N[C@@H](CCCCN)C(=O)N[C@@H](CC(C)C)C(=O)N2 [compound 45]
- IC50 [1]: 132 nM
- IC50 [2]: 117 nM

Compound: CCCC[C@H](NC(=O)CNC(=O)[C@@H](N)CC(N)=O)C(=O)N[C@H]1CSSC[C@@H](C(N)=O)NC(=O)[C@@H]2C[C@@H](O)CN2C(=O)[C@H](Cc2c[nH]cn2)NC(=O)[C@@H]2CSSC[C@H](NC1=O)C(=O)NCC(=O)N[C@@H](Cc1ccc(OC)cc1)C(=O)N[C@@H](CCCCN)C(=O)N[C@@H](CCC(C)C)C(=O)N2 [compound 47]
- IC50 [1]: 132 nM
- IC50 [2]: 166 nM

Compound: CCCC[C@H](NC(=O)CNC(=O)[C@@H](N)CCCN)C(=O)N[C@H]1CSSC[C@@H](C(N)=O)NC(=O)[C@@H]2C[C@@H](O)CN2C(=O)[C@H](Cc2c[nH]cn2)NC(=O)[C@@H]2CSSC[C@H](NC1=O)C(=O)NCC(=O)N[C@@H](Cc1ccc(OC)cc1)C(=O)N[C@@H](CCCCN)C(=O)N[C@@H](CCCC)C(=O)N2 [compound 48]
- IC50 [1]: 132 nM
- IC50 [2]: 67.6 nM

Compound: COc1ccc(C[C@@H]2NC(=O)CNC(=O)[C@@H]3CSSC[C@H](NC(=O)[C@H](CC(C)C)NC(=O)[C@H](CCCCN)NC2=O)C(=O)N[C@@H](Cc2c[nH]cn2)C(=O)N2C[C@H](O)C[C@H]2C(=O)N[C@H](C(N)=O)CSSC[C@H](NC(=O)[C@H](CC(C)C)NC(=O)CNC(=O)[C@@H](N)CCCN)C(=O)N3)cc1 [compound 51]
- IC50 [1]: 145 nM
- IC50 [2]: 77.6 nM

Compound: CCCC[C@H](NC(=O)CNC(=O)[C@@H](N)CCCN)C(=O)N[C@H]1CSSC[C@@H](C(N)=O)NC(=O)[C@@H]2C[C@@H](O)CN2C(=O)[C@H](Cc2c[nH]cn2)NC(=O)[C@@H]2CSSC[C@H](NC1=O)C(=O)NCC(=O)N[C@@H](Cc1ccc(O)cc1)C(=O)N[C@@H](CCCCN)C(=O)N[C@@H](CCC(C)C)C(=O)N2 [compound 52]
- IC50 [1]: 148 nM
- IC50 [2]: 81.3 nM

Compound: COc1ccc(C[C@@H]2NC(=O)CNC(=O)[C@@H]3CSSC[C@H](NC(=O)[C@H](CC(C)C)NC(=O)[C@H](CCCCN)NC2=O)C(=O)N[C@@H](Cc2c[nH]cn2)C(=O)N2CCC[C@H]2C(=O)N[C@H](C(N)=O)CSSC[C@H](NC(=O)[C@@H](NC(=O)CNC(=O)[C@H](CC(N)=O)NC(=O)[C@@H](N)Cc2c[nH]c4ccccc24)C(C)C)C(=O)N3)cc1 [compound 53]
- IC50 [1]: 155 nM
- IC50 [2]: 145 nM

Compound: CCCC[C@H](NC(=O)CNC(=O)[C@H](CCCNC(=N)N)NC(=O)[C@H](Cc1ccc(O)cc1)NC(=O)[C@@H](N)CC(=O)O)C(=O)N[C@H]1CSSC[C@@H](C(N)=O)NC(=O)[C@@H]2C[C@@H](O)CN2C(=O)[C@H](CCCNC(=N)N)NC(=O)[C@@H]2CSSC[C@H](NC1=O)C(=O)NCC(=O)N[C@@H](Cc1ccc(OC)cc1)C(=O)N[C@@H](CCCCN)C(=O)N[C@@H](CC(C)C)C(=O)N2 [compound 55]
- IC50 [1]: 166 nM
- IC50 [2]: 170 nM

Compound: CC(C)CC[C@@H]1NC(=O)[C@H](CCCCN)NC(=O)[C@H](Cc2ccc(O)cc2)NC(=O)CNC(=O)[C@@H]2CSSC[C@H](NC1=O)C(=O)N[C@@H](Cc1c[nH]cn1)C(=O)N1CCC[C@H]1C(=O)N[C@H](C(N)=O)CSSC[C@H](NC(=O)[C@@H](NC(=O)CNC(=O)[C@H](CC(N)=O)NC(=O)[C@@H](N)Cc1ccc(O)cc1)C(C)C)C(=O)N2 [compound 56]
- IC50 [1]: 166 nM
- IC50 [2]: 79.4 nM

Compound: CCCC[C@H](NC(=O)CNC(=O)[C@@H](N)CC(N)=O)C(=O)N[C@H]1CSSC[C@@H](C(N)=O)NC(=O)[C@@H]2C[C@@H](O)CN2C(=O)[C@H](Cc2c[nH]cn2)NC(=O)[C@@H]2CSSC[C@H](NC1=O)C(=O)NCC(=O)N[C@@H](Cc1ccc(O)cc1)C(=O)N[C@@H](CCCCN)C(=O)N[C@@H](CCCC)C(=O)N2 [compound 57]
- IC50 [1]: 170 nM
- IC50 [2]: 115 nM

Compound: CCCC[C@H](NC(=O)CNC(=O)[C@@H](N)CC(N)=O)C(=O)N[C@H]1CSSC[C@@H](C(N)=O)NC(=O)[C@@H]2C[C@@H](O)CN2C(=O)[C@H](Cc2c[nH]cn2)NC(=O)[C@@H]2CSSC[C@H](NC1=O)C(=O)NCC(=O)N[C@@H](Cc1ccc(OC)cc1)C(=O)N[C@@H](CCCCN)C(=O)N[C@@H](CCCC)C(=O)N2 [compound 61]
- IC50 [1]: 178 nM
- IC50 [2]: 126 nM

Compound: CCCC[C@H](NC(=O)CNC(=O)[C@@H](N)CCCN)C(=O)N[C@H]1CSSC[C@@H](C(N)=O)NC(=O)[C@@H]2C[C@@H](O)CN2C(=O)[C@H](Cc2c[nH]cn2)NC(=O)[C@@H]2CSSC[C@H](NC1=O)C(=O)NCC(=O)N[C@@H](Cc1ccc(O)cc1)C(=O)N[C@@H](CCCCN)C(=O)N[C@@H](CCCC)C(=O)N2 [compound 66]
- IC50 [1]: 200 nM
- IC50 [2]: 91.2 nM

Compound: CC(C)C[C@@H]1NC(=O)[C@H](CCCCN)NC(=O)[C@H](Cc2ccc(O)cc2)NC(=O)CNC(=O)[C@@H]2CSSC[C@H](NC1=O)C(=O)N[C@@H](Cc1c[nH]cn1)C(=O)N1C[C@H](O)C[C@H]1C(=O)N[C@H](C(N)=O)CSSC[C@H](NC(=O)[C@@H](NC(=O)CNC(=O)[C@H](CC(N)=O)NC(=O)[C@@H](N)CCc1ccccc1)C(C)C)C(=O)N2 [compound 67]
- IC50 [1]: 204 nM
- IC50 [2]: 75.9 nM
